How the values were obtained:
Format in all cases: cell-based, human
[1] = tested on: Hedgehog signaling (GliBS-luc reporter); assay: GliBS-luciferase reporter assay; conditions: CFPAC-1, BxPC3, L3.6sl, Panc4.21, cyclopamine 10 μM, sulindac 250 μM, FIG. 4B
Procedure: The cell lines were plated the day prior to transfection at a density of 8×10^4 cells/well in a 24-well plate. The luciferase reporter constructs used included: Top-Flash and Fop-Flash containing multimerized Tcf-Lef binding sites or nonfunctional sites, respectively; TK-Luc (Promega); and GliBS containing 8×Gli binding sites upstream of the TK minimal promoter (Sasaki et al., Development, 124:1313-1322, 1997). In different experiments, the reporter constructs were co-transfected with an expression vector containing a dominant-negative form of Lef1 or the endogenous Wnt inhibitor Icat. The dominant negative Lef1 (gift from S. Pleasure) was generated by cloning the 63 amino acid N-terminal deleted form of Lef1 into the pEF5 plasmid. This construct also contains an IRES-EGFP cassette. The cDNA coding for the Icat protein was cloned into pIRES2-EGFP (BD Biosciences Clontech). Transfections were performed using the Effectene transfection reagent […] according to the user's manual. A Renilla luciferase plasmid (Promega) was included to control for transfection efficiency. Transfected cells were cultured in medium containing serum. […] Cells were harvested 24 hrs after transfection, and luciferase activity was assayed using the Dual Luciferase kit (Promega), according to the user's manual. […]

[2] = tested on: pancreatic adenocarcinoma cell lines; assay: Growth, BrdU incorporation and apoptosis of pancreatic cancer cell lines (results stated for the lines together); conditions: 75 μM sulindac sulfone, 5 μM cyclopamine or both; FIG. 4H
Procedure: The small chemical inhibitors were used at the following final concentrations: up to 250 μM for sulindac (Sigma), up to 300 μM for sulindac sulfone (Calbiochem or ICN), NS-398 up to 25 μM (Calbiochem), sodium salicylate up to 100 μM (Calbiochem). […] To test for drug sensitivity, the cells were plated in control medium or in medium containing the drug of interest for 2 to 5 days. The culture media was changed every 48 hrs. The images showing cell morphology were taken with a Nikon inverted microscope.
Cells were pulsed with 10 μM BrdU for two hours and then harvested and fixed. BrdU incorporation was detected with a fluorescein isothiocyanate conjugated anti-BrdU antibody (BD Biosciences) and total DNA was stained with 7-AAD (BD Biosciences). FACS analysis was performed according to the BD Biosciences BrdU flow kit manual. Cells in S-phase were defined as the BrdU-positive cell population with a DNA content between 2N and 4N. According to the manual, apoptotic cells were defined as a subpopulation of G0/G1 cells with DNA content lower than the diploid amount (<2N).
The cell lines were plated the day prior to transfection at a density of 8×10^4 cells/well in a 24-well plate. […]

[3] = tested on: Wnt signaling (Top-Flash reporter); assay: Fop/Top-Flash luciferase reporter assay; conditions: for activity of the Wnt reporter: cyclopamine 10 μM, FIG. 4A
Procedure: The cell lines were plated the day prior to transfection at a density of 8×10^4 cells/well in a 24-well plate. The luciferase reporter constructs used included: Top-Flash and Fop-Flash containing multimerized Tcf-Lef binding sites or nonfunctional sites, respectively; TK-Luc (Promega); and GliBS containing 8×Gli binding sites upstream of the TK minimal promoter (Sasaki et al., Development, 124:1313-1322, 1997). In different experiments, the reporter constructs were co-transfected with an expression vector containing a dominant-negative form of Lef1 or the endogenous Wnt inhibitor Icat. The dominant negative Lef1 (gift from S. Pleasure) was generated by cloning the 63 amino acid N-terminal deleted form of Lef1 into the pEF5 plasmid. This construct also contains an IRES-EGFP cassette. The cDNA coding for the Icat protein was cloned into pIRES2-EGFP (BD Biosciences Clontech). Transfections were performed using the Effectene transfection reagent […] according to the user's manual. A Renilla luciferase plasmid (Promega) was included to control for transfection efficiency. Transfected cells were cultured in medium containing serum. […] Cells were harvested 24 hrs after transfection, and luciferase activity was assayed using the Dual Luciferase kit (Promega), according to the user's manual.
For each Fop-luciferase or Top-luciferase experiment, a renilla luciferase construct was included. For each experimental condition (drug treatment, co-transfection or siRNA), triplicate Top- and Fop-luciferase samples were analyzed. To equilibrate the total vector-DNA (or siRNA) amount in all samples, equivalent amounts of an empty expression vector or unrelated siRNAs were transfected into control samples. The following equations were used to obtain the normalized luciferase values and the relative (fold) activation. The firefly luciferase (Fop and Top) values were divided by the renilla luciferase values to obtain the normalized luciferase values. The normalized Top values for each condition were divided by the Fop values of the same condition (e.g., untreated Top/untreated Fop; drug-treated Top/drug-treated Fop). […] To minimize the number of bars in each figure, only representative average Fop values are included in the graphs.

CC1=C2C[C@H]3[C@@H](CC=C4C[C@@H](O)CC[C@@]43C)[C@@H]2CC[C@]12O[C@@H]1C[C@H](C)CN[C@H]1[C@H]2C [cyclopamine, 11-deoxojervine]
activity of the GliBS-luc Hedgehog reporter [1]: inhibited
activity of the GliBS-luc Hedgehog reporter ([1]; listed as Cyclopamine): inhibits the activity of the Hedgehog reporter construct
cell proliferation as measured by BrdU incorporation [2]: inhibits cell proliferation
Top-Flash reporter activity (Wnt signaling) ([3]; CFPAC-1, BxPC3, L3.6sl, Panc4.21, 24 hrs after transfection, sulindac 250 μM, sulindac sulfone 150 μM, cyclopamine 10 μM, or co-transfection): inhibited
activity of the Wnt reporter ([3]; CFPAC-1): strongly reduced
activity of the Wnt reporter ([3]; L3.6sl): strongly reduced
activity of the Wnt reporter ([3]; Panc4.21): strongly reduced

Source: patent US20090012018A1, “Inhibition of pancretic cancer cell growth” (priority 2004, published 2009)
